Columns and labels:
Assay in all cases: cell-based or functional assay
IL-1β from mouse (mouse) = IL-1β from mouse (mouse) (UniProt P10749)
[1] = molecular target: TNFα from rhesus monkey (rhesus monkey) (UniProt P48094)
[2] = molecular target: recombinant human IL-1β (human) (UniProt P01584)
[3] = molecular target: IL-1β from rhesus monkey (rhesus monkey) (UniProt P48090)

inhibition of IL-1β-induced IL-6 release from MRC-5 cells (10 ng/ml IL-1β) (fold less potency compared to TAVO5332) (IL-1β from mouse (mouse)): < 2 | inhibition of IL-1β-induced IL-6 release from MRC-5 cells (1 ng/ml IL-1β) (fold less potency compared to TAVO5332) [2]: < 2 | inhibition of IL-1β-induced IL-6 release from MRC-5 cells (1 ng/ml IL-1β) (fold less potency compared to TAVO5332) [3]: < 2
Substance: anti-TNFα and IL-1β bispecific IgG1 antibody TAVO3334×5332 (bispecific antibody)
neutralization of TNFα cytotoxicity to WEHI cells (MTT assay, 10 ng/mL TNFα) (fold less potency relative to TAVO3334) [1]: < 2
